Measurements published in patent US6525059B1, “Substituted pyrazoles as p38 kinase inhibitors” (G. D. Searle & Company, priority 1998, dated 2003).

System: TNF-α
Assay: LPS stimulation of TNF production by U937 cells
Format: cell-based
Conditions: read-out: U937 Cell IC50, LPS-stimulated human U937 cells

Structure (SMILES)	IC50
O=C(NCc1[nH]nc(-c2ccc(F)cc2)c1-c1ccncc1)N1CCOCC1	> 1000 nM
CCN(CC)C(=O)NCc1[nH]nc(-c2ccc(F)cc2)c1-c1ccncc1	> 1000 nM
